The assay has as its system deoxyribonucleic acid of adrenal. It counts as in vivo, rat. The conditions noted are these: Table VII.

Where two headings read alike, the source gives them in different places.

`Cc1ccc2cc3c(ccc4ccccc43)c3c2c1CC3` [3-MC, 3-Methylcholanthrene]: the “Tritium content of adrenal” value (3-MC 2.5 mg i.v. at -24 hrs) was 0.095 ~clgm. Besides, the “Tritium content of adrenal, per cent of controls” value was 72 per cent (3-MC 2.5 mg i.v. at -24 hrs); 67 per cent (3-MC 2.5 mg i.v. at -28 hrs and 7,12-DMBA 5 mg i.v. at -4 hrs).

For the origin of these results see article PMC2137757 (The Journal of Experimental Medicine, 1964).
